Apparent affinities of Ab-14 variants for a coronavirus HR2 peptide

From the AlphaSeq antibody data of Li et al. 2023 (doi:10.1038/s41467-023-39022-2), copy in the FLAb collection.

Target: peptide PDVDLGDISGINAS, taken from heptad repeat 2 (HR2) of SARS-CoV-2 spike.

Parent scFv Ab-14: VH joined to VL by a (GGGGS)3 linker. Changes lie in the heavy chain CDRs alone.
VH: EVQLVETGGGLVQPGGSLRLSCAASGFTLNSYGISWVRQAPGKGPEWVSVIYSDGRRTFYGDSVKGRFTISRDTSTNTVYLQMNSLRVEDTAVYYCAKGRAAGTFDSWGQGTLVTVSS
VL: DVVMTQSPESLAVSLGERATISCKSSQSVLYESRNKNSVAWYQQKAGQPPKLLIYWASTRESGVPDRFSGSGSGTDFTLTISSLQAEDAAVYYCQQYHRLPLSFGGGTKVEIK

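Phage display of a naive human antibody library on the peptide gave the parent. The variants were designed computationally from a first round of random CDR variants and then made and measured. Their group label is 14H_En_Gen (En: ensemble of fine-tuned language models; Gen: genetic algorithm). AlphaSeq pools MATa yeast showing the antibodies with MATalpha yeast showing the peptide. Pairs that bind mate more often; barcode pairs of the diploids are counted by sequencing. Scores were corrected for input abundance and mapped to Kd with protein pairs of known affinity run in the same pool. There are six technical replicates.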

The parent's heavy chain CDRs are GFTLNSYGIS, VIYSDGRRTFYGDSVK, GRAAGTFDS; each variant's own CDRs replace them letter for letter. Scale: log10 of Kd in nM, estimated from mating counts; low values are strong binders. A mean of the replicates is given; it leaves out those without a signal. An entry "ND" has no value in the source: the pair was not observed among the diploids in that replicate. This suggests poor binding but is not conclusive. Nonspecific signal, from three strains lacking the peptide, appeared in 1% of pairings of all heavy chain designs, centred on 2.08 (5% of these signals below 0.84); values are not corrected for it. Also given: how often the same scFv was detected with the empty control strains, with their mean in brackets. Values of this round are not directly comparable with the first-round values of the same sequences. The authors' rule: three or more of the six replicates give a measured affinity, fewer mean a poor binder. The parent sequence was in this pool as ten entries: three were never detected, three once, and four in most replicates, with averages from 0.34 to 2.37.

CDR-H1,CDR-H2,CDR-H3,"replicates, log10 nM","mean, log10 nM",control signals
GFDLNEYGIS,VIYADGVRTAYADDVK,GQNAGTFDV,-0.56 / -0.64 / -0.64 / -0.75 / -0.67 / -0.40,-0.61,0 of 18
GFDLNEYGIS,VIYADGMRTVYADSVK,GNNAGTFDV,0.11 / -0.11 / 0.39 / 0.17 / -0.24 / 0.30,0.10,0 of 18
GFDLDEYGIS,VIYADGSRTAYADSVK,GNNAGTFDM,0.41 / 0.10 / 0.06 / -0.43 / 0.12 / 0.12,0.06,1 of 18 (3.06)
GFDLNEYGIS,VIYADGMRKAYADSVK,GEVAGTFDT,ND / ND / ND / ND / -0.36 / ND,-0.36,0 of 18
GFDLNEYGIS,VIYADGTRTAYADSVK,GNVAGTFDL,ND / 0.38 / -0.89 / 2.20 / -0.63 / 0.90,0.39,0 of 18
GFDLNEYGIS,VIYADGKRTAYADSVK,GQVAGTFDV,-0.97 / -0.75 / -1.10 / -1.01 / -1.26 / -0.94,-1.01,0 of 18
GFDLNEYGIS,VIYADGMRTAYSDNVK,GETAGTFDL,0.44 / 0.09 / -0.08 / 0.14 / -0.01 / 0.03,0.10,0 of 18
GFDLNEYGIS,VIYADGVRTAYADSVK,GEVAGTFDQ,0.05 / -0.53 / -0.12 / -0.63 / -0.12 / -0.81,-0.36,0 of 18
GFDLDEYGIS,VIYADGMRTVYADSVK,GENAGTFDV,-0.11 / -0.63 / -0.27 / -0.68 / -0.76 / -0.19,-0.44,0 of 18
GFDLNEYGIS,VIYADGKRTAYADSVK,GNEAGTFDT,-0.27 / -0.80 / -0.77 / -0.83 / -0.74 / -0.30,-0.62,0 of 18
GFDLDEYGIS,VIYADGMRTAYIDSVK,GNVAGTFDL,-0.08 / -0.21 / -0.49 / -0.43 / -0.56 / -0.40,-0.36,0 of 18
GFDLNEYGIS,VIYADGTRTAYADDVK,GENAGTFDV,-0.22 / -0.54 / -0.13 / -0.31 / -0.29 / -0.17,-0.28,0 of 18
GFDLDEYGIS,VIYADGMRTAYADNVK,GNQAGTFDI,-0.77 / -0.50 / -0.71 / -0.75 / -0.69 / -0.87,-0.72,0 of 18
GFDLNEYGIS,VIYADGKRTAYTDSVK,GGNAGTFDV,-0.06 / -0.20 / -0.65 / -0.39 / -0.24 / 0.06,-0.25,1 of 18 (2.62)
GFDLNEYGIS,VIYADGVRTAYADTVK,GNQAGTFDV,-0.72 / -0.70 / -0.84 / -0.62 / -0.76 / -0.24,-0.65,1 of 18 (1.27)
GFDLDEYGIS,VIYADGMRTAYADSVK,GTNAGTFDL,-0.29 / -0.17 / -0.31 / -0.67 / -0.20 / -0.29,-0.32,1 of 18 (1.53)
GFDLNEYGIS,VIYADGMRTFYADDVK,GNVAGTFDM,-0.47 / -0.38 / -0.64 / -0.64 / -0.76 / -0.47,-0.56,0 of 18
GFDLNEYGIS,VIYADGVRTYYADDVK,GNNAGTFDV,-0.02 / -0.21 / 0.16 / -0.54 / -0.14 / -0.01,-0.13,1 of 18 (1.93)
GFDLNEYGIS,VIYADGMRTYYADSVK,GQNAGTFDV,-0.39 / -0.64 / -0.73 / -0.53 / -0.71 / -0.56,-0.59,1 of 18 (2.48)
GFDLNEYGIS,VIYADGLRTAYSDSVK,GENAGTFDV,0.29 / 0.32 / 0.12 / 0.09 / 0.55 / 0.16,0.25,0 of 18
GFDLDEYGIS,VIYADGMRTYYADSVK,GNTAGTFDV,0.95 / 1.38 / 1.34 / 0.26 / 1.47 / 0.42,0.97,0 of 18
GFDLNEYGIS,VIYADGRRTAYADSVK,GNQAGTFDM,-0.07 / ND / 0.12 / 0.63 / ND / 0.48,0.29,0 of 18
GFDLNEYGIS,VIYADGSRKAYADSVK,GNNAGTFDV,-2.58 / -2.63 / -2.69 / -2.01 / -2.10 / -2.43,-2.41,0 of 18
GFDLDEYGIS,VIYADGRRTAYADNVK,GNVAGTFDL,0.56 / 0.09 / 0.30 / 0.37 / -0.18 / 0.47,0.27,0 of 18
GFDLNEYGIS,VIYADGLRTYYADSVK,GNNAGTFDV,1.71 / 1.90 / 0.95 / 2.02 / 2.10 / 0.82,1.58,1 of 18 (2.67)
GFDLNEYGIS,VIYADGKRTAYSDSVK,GNNAGTFDI,0.31 / 0.08 / 0.74 / 0.26 / 2.44 / 1.32,0.86,0 of 18
GFDLDEYGIS,VIYADGMRTAYANSVK,GNVAGTFDV,-0.06 / -0.54 / -0.48 / 0.02 / 0.20 / -0.22,-0.18,0 of 18
GFDLDEYGIS,VIYADGKRTAYADNVK,GNVAGTFDL,-0.76 / -0.62 / -0.97 / -1.22 / -1.02 / -0.60,-0.87,0 of 18
GFDLNEYGIS,VIYADGKRTAYANSVK,GNVAGTFDL,-0.43 / -0.64 / -0.20 / -0.64 / -0.76 / -0.57,-0.54,0 of 18
GFDLNEYGIS,VIYADGRRTAYADSVK,GQVAGTFDQ,-0.87 / -0.48 / -0.83 / -0.98 / -0.37 / -0.40,-0.65,0 of 18
GFDLDEYGIS,VIYADGVRTAYADSVK,GEVAGTFDT,-0.03 / -0.59 / -0.44 / -0.55 / -0.06 / -0.64,-0.39,0 of 18
GFDLDEYGIS,VIYADGRRTAYSDSVK,GETAGTFDV,-0.20 / -0.23 / -0.32 / -0.53 / -0.28 / -0.35,-0.32,1 of 18 (2.86)
GFDLNEYGIS,VIYADGVRTAYADSVK,GNHAGTFDI,-0.27 / -0.37 / -0.14 / -0.35 / -0.56 / -0.35,-0.34,0 of 18
GFDLNEYGIS,VIYADGQRTAYSDSVK,GNQAGTFDM,-0.22 / -0.20 / -0.39 / -0.25 / -0.53 / -0.12,-0.29,0 of 18
GFDLNEYGIS,VIYADGRRTYYADSVK,GNVAGTFDL,-0.68 / -0.83 / -0.74 / -0.68 / -0.69 / -0.63,-0.71,0 of 18
GFDLNEYGIS,VIYADGMRTAYADDVK,GNNAGTFDL,-0.44 / -0.33 / -0.12 / -0.59 / -0.68 / -0.39,-0.43,0 of 18
GFDLNEYGIS,VIYADGMRTAYADSVK,GHVAGTFDV,-0.61 / -0.41 / -0.62 / -0.66 / -0.65 / -0.48,-0.57,0 of 18

Top 5 of the variants detected in all replicates, tightest first:

CDR-H1	CDR-H2	CDR-H3	replicates, log10 nM	mean, log10 nM	control signals
GFDLNEYGIS	VIYADGSRKAYADSVK	GNNAGTFDV	-2.58 / -2.63 / -2.69 / -2.01 / -2.10 / -2.43	-2.41	0 of 18
GFDLNEYGIS	VIYADGKRTAYADSVK	GQVAGTFDV	-0.97 / -0.75 / -1.10 / -1.01 / -1.26 / -0.94	-1.01	0 of 18
GFDLDEYGIS	VIYADGKRTAYADNVK	GNVAGTFDL	-0.76 / -0.62 / -0.97 / -1.22 / -1.02 / -0.60	-0.87	0 of 18
GFDLDEYGIS	VIYADGMRTAYADNVK	GNQAGTFDI	-0.77 / -0.50 / -0.71 / -0.75 / -0.69 / -0.87	-0.72	0 of 18
GFDLNEYGIS	VIYADGRRTYYADSVK	GNVAGTFDL	-0.68 / -0.83 / -0.74 / -0.68 / -0.69 / -0.63	-0.71	0 of 18